The experiment addresses PKMYT1 (Homo sapiens (Human), UniProt Q99640). Briefly: PKMYT1 HTRF assay. The conditions noted are these: Tracer 178, GST-Tb, compound 10 μM to 0.5 nM. In kind it is binding.

Protein sequences, listed by entry. Tags and fused reporters are not part of them.
UniProt Q99640, whole entry: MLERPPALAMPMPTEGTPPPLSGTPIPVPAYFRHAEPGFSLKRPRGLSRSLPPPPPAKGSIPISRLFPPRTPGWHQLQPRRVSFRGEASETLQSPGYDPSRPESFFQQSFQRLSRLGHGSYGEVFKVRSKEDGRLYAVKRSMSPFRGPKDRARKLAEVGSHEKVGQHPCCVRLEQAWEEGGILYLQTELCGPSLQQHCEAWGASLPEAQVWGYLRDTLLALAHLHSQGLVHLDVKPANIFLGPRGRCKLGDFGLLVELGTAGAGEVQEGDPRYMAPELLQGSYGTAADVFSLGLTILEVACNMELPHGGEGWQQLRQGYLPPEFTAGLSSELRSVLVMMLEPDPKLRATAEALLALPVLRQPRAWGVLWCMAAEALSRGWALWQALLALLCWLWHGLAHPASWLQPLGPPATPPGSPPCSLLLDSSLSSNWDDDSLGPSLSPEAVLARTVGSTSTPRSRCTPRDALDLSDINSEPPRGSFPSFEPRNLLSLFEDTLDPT

pIC50: −log10 of the molar value.

Compound `Cc1ccc(O)c(C)c1-n1c(N)c(C(N)=O)c2c(=O)n(C3CC3)c(C)cc21` had a pIC50 of 8.41.

Values taken from patent publication US20250197405A1, “HETEROAROMATIC COMPOUNDS AS PKMYT1 INHIBITORS AND USE THEREOF” (INSILICO MEDICINE IP LIMITED, priority 2022, published 2025).
